# Source: PubChem BioAssay
# GALK inh: galactokinase (human) inhibition | Purified GALK, Kinase-Glo residual ATP luminescence | Potency, µM (top dose mostly 57.5 µM), actives largely listed as inhibitors | P51570 | 0.007% of 270,000 active | AID 1868
#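 Luminescence from leftover ATP (Ultra-Glo luciferase/luciferin) served as read-out after a 1 h room-temperature reaction of 5 nM GALK with 35 uM ATP and 100 uM galactose.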
# Coupling enz: inhibits coupling enzyme system, counter-screen for aldolase hits; 0.67% of 290,000 active; coupling enzyme system counterscreen, AmpLite Red fluorescence; AID 2472; activity change, negative = inhibition, % at 58.2 µM, hits read low; in the data active means activity change below about -30%
#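 Final compound at 57.5 uM, incubated 10 min at RT with coupling enzyme reagent (glyceraldehyde-3-phosphate), then 20 min with substrate and AmpLite Red detection. Fluorescence read at 525/598 nm; tests interference with the coupling assay, not aldolase inhibition.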
# miR-21 reporter: raises the signal of a miR-21 reporter | Potency, µM (doses to about 38.3 µM) | HeLa miR-21 FLuc reporter, luciferase, 48 h | AID 2288 | 340,000 tested, under 10 active; active = well fitted rising curve with a large enough effect; inconclusive = small, poorly fitted or top-dose-only effect; inactive = no such curve, though single readings can be large or run the other way;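 also: miR-21 action dims this reporter so a rising signal means less miR-21 action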
#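 HeLa miR-21-FLuc reporter line, endogenous miR-21; 2000 cells/well in DMEM/10% FBS; compound titration up to ~40uM final, 48 h, 37 degree Celsius; luciferase detection reagent, 15 min lysis, CCD luminescence.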
# Giardia kill: Giardia lamblia killing; Giardia lamblia trophozoite viability; activity change, % at 7.66 µM, hits read low; 0.15% of 340,000 active; in the data active means activity change below about -80%; inconclusive means between about -30% and that limit;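 further: parasites exposed to compound for two days anaerobically before the ATP read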
#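 Media and compound were dispensed first, then trophozoites at 100 cells/well; plates sat 48 hrs at 37 deg C without oxygen before ATP luminescence reagent was added and read after 15-30 min at room temperature.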
# uPA surface inh: inhibitors of cell surface uPA generation. AID 540303. 0.31% of 330,000 active. cell surface uPA generation assay, qHTS. Potency, µM (doses to about 38.3 µM), hits mostly inhibitors; active means well fitted inhibition curve with a large enough effect; inconclusive means small, poorly fitted or top-dose-only effect; inactive means no such curve, though single readings can be large or run the other way; tested in mouse RAW 264.7 cells; further: nearly all actives have a fitted effect of over 55% in size
# B2AR arrestin: agonists driving beta-arrestin recruitment to human beta2-adrenergic receptor; P07550; Potency, µM (highest dose often 46.1 µM), most hits filed as activators; beta-arrestin recruitment to beta2AR, cell-based reporter; AID 492947; 0.02% of 330,000 active; further: nearly all actives have a fitted effect of over 65% in size
# A number is an active result; . = inactive; ? = inconclusive; / = no result. Shown are actives, neighbours in structure and some others; about 0.92% of the full set was active somewhere. Unless noted, the call rests on the fitted dose curve; in most records, active means well fitted curve in the direction sought with a large enough effect; inconclusive means small, poorly fitted or top-dose-only effect, or another doubt; inactive means no such curve, though single readings can be large; an effect the other way counts as inactive or inconclusive.
SMILES,GALK inh,Coupling enz,miR-21 reporter,Giardia kill,uPA surface inh,B2AR arrestin
Nn1cnnc1N/N=C\c1ccc(-c2ccccc2[N+](=O)[O-])o1,.,-49.2,.,.,.,.
COc1ccc(Nc2nc3ccccc3nc2NS(=O)(=O)c2ccc(Cl)cc2)cc1OC,/,/,.,/,/,/
Cc1ccc2nc(Cl)c(/C=N/Nc3ccc(C(=O)O)cc3)cc2c1,.,.,.,?,3.98µM,.
Cc1ccc2cc(/C=N/NC(=O)c3ccc(F)cc3)c(Cl)nc2c1,.,.,.,.,.,.
CCOC(=O)N1CCN(c2cc(NCCC(=O)O)c3c4c(onc24)-c2ccccc2C3=O)CC1,.,-53.6,.,.,.,.
O=C(O)CCCNc1cc(N2CCN(C(=O)c3ccco3)CC2)c2noc3c2c1C(=O)c1ccccc1-3,.,.,.,.,.,.
O=C(O)CCCNc1cc(N2CCC3(CC2)OCCO3)c2noc3c2c1C(=O)c1ccccc1-3,.,-39.1,.,/,/,.
CCOC(=O)C1=C(C)NC(=O)NC1c1ccc(OCC(=O)Nc2ccccc2)c(OC)c1 (stereo unspecified),.,.,.,.,.,.
CCOC(=O)C1=C(C)NC(=O)C1CC(=O)Nc1ccccc1 (stereo unspecified),.,-42.5,.,/,/,.
CCc1ccc(NC(=O)CC2C(=O)N(c3ccc(OC)cc3)C(=O)N2Cc2cccs2)cc1 (stereo unspecified),/,/,.,/,/,/
CC(=O)N1CCC(C(=O)Nc2nnc(C(C)C)s2)CC1,/,/,/,.,/,/
O=C1C=CC(=O)c2c(O)c(Cl)c(Cl)c(O)c21,/,-90.0,/,/,/,/
O=C1C=CC(=O)c2c(O)c(CO)c(CO)c(O)c21,/,/,/,.,.,/
O=C(N/N=C/c1cccc([N+](=O)[O-])c1)c1ccccc1-n1cccc1,.,-38.2,.,.,.,.
O=C(N/N=C/c1cc([N+](=O)[O-])ccc1O)c1cccc2cc[nH]c12,.,.,.,.,4.47µM,.
CCOC(=O)c1c(C)oc2ncnc(N3CCN(c4ccccc4)CC3)c12,/,/,.,/,/,/
COc1ccc(NC(=O)Cn2c(=O)n(-c3cc(C)cc(C)c3)c(=O)c3oc4ccccc4c32)cc1OC,/,/,.,/,/,/
CC(C)CN(CCCNC(=O)c1cn(C)c2ccc(S(=O)(=O)N(C)C3CCCCC3)cc2c1=O)CC(C)C,/,/,.,/,/,/
O=C(O)c1ccc(C2CCCCC2)cn1,.,-49.2,.,.,.,.
O=C(O)C1=C(C2CCCCC2)C(=O)c2ccccc21,/,/,/,.,.,/
COC(=O)c1ccc2c(c1O)C(=O)c1ccccc1C2=O,.,-44.5,.,?,.,.
COc1ccc2[nH]c(=O)c(CNc3ccccc3OC)cc2c1,.,-34.2,.,.,.,.
COc1ccc2[nH]c(=O)c(CNc3ccccc3)cc2c1,.,-34.7,.,.,.,.
CCOc1ccc(NCc2cc3cc(OC)ccc3[nH]c2=O)cc1,.,.,.,.,?,.
COc1cccc(C(=O)Nc2ccc3ccccc3c2)c1,.,.,.,.,.,.
SMILES,GALK inh,Coupling enz,miR-21 reporter,Giardia kill,uPA surface inh,B2AR arrestin
COc1ccc(NC(=O)c2ccc(C)cc2)cc1,.,.,.,.,10µM,.
COc1ccc(C(=O)Nc2ccc3ccccc3c2)cc1,.,.,.,?,5.01µM,.
NC(=O)CCCn1c(C(=O)c2ccc(Cl)cc2)c2ccc([N+](=O)[O-])cc2[n+]1[O-],/,/,/,-87.1,1.41µM,.
NCCCn1c(C(=O)c2ccc(Cl)cc2)c2ccc([N+](=O)[O-])cc2[n+]1[O-],/,/,/,?,?,.
NC(=O)CCCn1c(C(=O)c2cc(Cl)c(N)c(Cl)c2)c2ccc([N+](=O)[O-])cc2[n+]1[O-],/,/,/,?,3.16µM,.
Cc1ccc(C(=O)c2c3ccc([N+](=O)[O-])cc3[n+]([O-])n2CCCC(N)=O)cc1,/,/,/,?,?,.
COc1ccc(-c2cn3c(n2)sc2cc(C(=O)NC(C)C45CC6CC(CC(C6)C4)C5)ccc23)cc1 (stereo unspecified),/,/,.,/,/,/
Cc1nn(CCCC(=O)Nc2cccc(F)c2)c(=O)c2c1sc1ccccc12,/,/,.,/,/,/
O=C(C[C@H]1C[C@H](C(=O)N2CCOCC2)[C@@]2(CCC3CCCC3)c3[nH]c4ccc(Cl)cc4c3CCN2C1=O)NCCCn1ccnc1,/,/,/,.,12.6µM,.
N#Cc1cn(CCCOc2ccccc2)c2ccccc12,.,.,.,.,.,.
